System: eosinophilic granulocytes in the lung
Test: Late-phase eosinophilia in actively sensitized guinea pigs, pulmonary lavage 24 h after allergen provocation
Type: in vivo
Details: guinea pig

Question: For `COc1ccc(CC(C)NCC(O)c2ccc(O)c(NC=O)c2)cc1` (stereo not shown), which Inhibition of eosinophilia (0.0001 mg/kg intrapulmonarily) is on record?
Answer: 4.1%

Question: What about the Inhibition of eosinophilia (0.0001 mg/kg intrapulmonarily, listed as formoterol) of the same compound?
Answer: no inhibition or a marginal inhibition

Question: And the Inhibition of eosinophilia (0.001 mg/kg intrapulmonarily)?
Answer: 20.4%

Question: And the Inhibition of eosinophilia (0.001 mg/kg intrapulmonarily, listed as formoterol)?
Answer: no inhibition or a marginal inhibition
